Test results reported in patent publication US20240261333A1 (published 2024).
Values belong to the binder of their own block, whether it stands above or below them.

Experiments:
[1] = target: T1, P01837.1 (UniProt P01837 1-107); test: co-IP with anti-FLAG, N-FLAG B3GNT2, mass spectrometry
T1 construct: No name printed; also called NA

[2] = target: T1, P01837.1; test: co-IP with anti-FLAG, C-FLAG B3GNT2, mass spectrometry
[3] = target: T2, ACTA2 (human, UniProt P62736 3-377); test: co-IP with mouse anti-FLAG from lysate of cells overexpressing N-FLAG B3GNT2, then mass spectrometry
[4] = target: T2, ACTA2; test: co-IP with mouse anti-FLAG from lysate of cells overexpressing C-FLAG B3GNT2, then mass spectrometry
[5] = target: T3, ACTG1 (human, UniProt P63261 2-375); test: co-IP, anti-FLAG, lysate of cells with C-FLAG B3GNT2; mass spectrometry
[6] = target: T3, ACTG1; test: co-IP, anti-FLAG, lysate of cells with N-FLAG B3GNT2; mass spectrometry

B2: C-terminal FLAG tagged B3GNT2 (enzyme, human, UniProt Q9NY97 1-397, looked up)
chain: MSVGRRRIKLLGILMMANVFIYFIMEVSKSSSQEKNGKGEVIIPKEKFWKISTPPEAYWNREQEKLNRQYNPILSMLTNQTGEAGRLSNISHLNYCEPDLRVTSVVTGFNNLPDRFKDFLLYLRCRNYSLLIDQPDKCAKKPFLLLAIKSLTPHFARRQAIRESWGQESNAGNQTVVRVFLLGQTPPEDNHPDLSDMLKFESEKHQDILMWNYRDTFFNLSLKEVLFLRWVSTSCPDTEFVFKGDDDVFVNTHHILNYLNSLSKTKAKDLFIGDVIHNAGPHRDKKLKYYIPEVVYSGLYPPYAGGGGFLYSGHLALRLYHITDQVHLYPIDDVYTGMCLQKLGLVPEKHKGFRTFDIEEKNKNNICSYVDLMLVHSRKPQEMIDIWSQLQSAHLKC
notes: FLAG-tagged ORF overexpressed in A375 cells; pulled down from the lysate with mouse anti-FLAG; also called C-FLAG B3GNT2; C-term flag; not shown: C-terminal FLAG tag
co-IP/MS count, C-term flag [2]: 146

B4: C-terminal FLAG tagged B3GNT2 (enzyme, human, UniProt Q9NY97 1-397, looked up)
chain: MSVGRRRIKLLGILMMANVFIYFIMEVSKSSSQEKNGKGEVIIPKEKFWKISTPPEAYWNREQEKLNRQYNPILSMLTNQTGEAGRLSNISHLNYCEPDLRVTSVVTGFNNLPDRFKDFLLYLRCRNYSLLIDQPDKCAKKPFLLLAIKSLTPHFARRQAIRESWGQESNAGNQTVVRVFLLGQTPPEDNHPDLSDMLKFESEKHQDILMWNYRDTFFNLSLKEVLFLRWVSTSCPDTEFVFKGDDDVFVNTHHILNYLNSLSKTKAKDLFIGDVIHNAGPHRDKKLKYYIPEVVYSGLYPPYAGGGGFLYSGHLALRLYHITDQVHLYPIDDVYTGMCLQKLGLVPEKHKGFRTFDIEEKNKNNICSYVDLMLVHSRKPQEMIDIWSQLQSAHLKC
notes: FLAG-tagged ORF overexpressed in A375 cells; bait of the co-IP with mouse anti-FLAG; also called C-FLAG B3GNT2; C-term flag; not shown: C-terminal FLAG tag
co-IP mass spectrometry count (C-term flag) [4]: 81

B5: C-terminal FLAG tagged B3GNT2 (enzyme, human, UniProt Q9NY97 1-397, looked up)
chain: MSVGRRRIKLLGILMMANVFIYFIMEVSKSSSQEKNGKGEVIIPKEKFWKISTPPEAYWNREQEKLNRQYNPILSMLTNQTGEAGRLSNISHLNYCEPDLRVTSVVTGFNNLPDRFKDFLLYLRCRNYSLLIDQPDKCAKKPFLLLAIKSLTPHFARRQAIRESWGQESNAGNQTVVRVFLLGQTPPEDNHPDLSDMLKFESEKHQDILMWNYRDTFFNLSLKEVLFLRWVSTSCPDTEFVFKGDDDVFVNTHHILNYLNSLSKTKAKDLFIGDVIHNAGPHRDKKLKYYIPEVVYSGLYPPYAGGGGFLYSGHLALRLYHITDQVHLYPIDDVYTGMCLQKLGLVPEKHKGFRTFDIEEKNKNNICSYVDLMLVHSRKPQEMIDIWSQLQSAHLKC
notes: Overexpressed in cells and pulled down from the lysate with mouse anti-FLAG antibody; also called C-FLAG B3GNT2; C-term flag; not shown: C-terminal FLAG tag
co-IP mass spectrometry count [5]: 107

Further lines, results first:

co-IP/MS count, N-term FLAG [1]: 89
B1: N-terminal FLAG tagged B3GNT2 (enzyme, human, UniProt Q9NY97 1-397, looked up)
chain: MSVGRRRIKLLGILMMANVFIYFIMEVSKSSSQEKNGKGEVIIPKEKFWKISTPPEAYWNREQEKLNRQYNPILSMLTNQTGEAGRLSNISHLNYCEPDLRVTSVVTGFNNLPDRFKDFLLYLRCRNYSLLIDQPDKCAKKPFLLLAIKSLTPHFARRQAIRESWGQESNAGNQTVVRVFLLGQTPPEDNHPDLSDMLKFESEKHQDILMWNYRDTFFNLSLKEVLFLRWVSTSCPDTEFVFKGDDDVFVNTHHILNYLNSLSKTKAKDLFIGDVIHNAGPHRDKKLKYYIPEVVYSGLYPPYAGGGGFLYSGHLALRLYHITDQVHLYPIDDVYTGMCLQKLGLVPEKHKGFRTFDIEEKNKNNICSYVDLMLVHSRKPQEMIDIWSQLQSAHLKC
notes: FLAG-tagged ORF overexpressed in A375 cells; pulled down from the lysate with mouse anti-FLAG; also called N-FLAG B3GNT2; N-term FLAG; not shown: N-terminal FLAG tag

co-IP mass spectrometry count (N-term FLAG) [3]: 64
B3: N-terminal FLAG tagged B3GNT2 (enzyme, human, UniProt Q9NY97 1-397, looked up)
chain: MSVGRRRIKLLGILMMANVFIYFIMEVSKSSSQEKNGKGEVIIPKEKFWKISTPPEAYWNREQEKLNRQYNPILSMLTNQTGEAGRLSNISHLNYCEPDLRVTSVVTGFNNLPDRFKDFLLYLRCRNYSLLIDQPDKCAKKPFLLLAIKSLTPHFARRQAIRESWGQESNAGNQTVVRVFLLGQTPPEDNHPDLSDMLKFESEKHQDILMWNYRDTFFNLSLKEVLFLRWVSTSCPDTEFVFKGDDDVFVNTHHILNYLNSLSKTKAKDLFIGDVIHNAGPHRDKKLKYYIPEVVYSGLYPPYAGGGGFLYSGHLALRLYHITDQVHLYPIDDVYTGMCLQKLGLVPEKHKGFRTFDIEEKNKNNICSYVDLMLVHSRKPQEMIDIWSQLQSAHLKC
notes: FLAG-tagged ORF overexpressed in A375 cells; bait of the co-IP with mouse anti-FLAG; also called N-FLAG B3GNT2; N-term FLAG; not shown: N-terminal FLAG tag

co-IP mass spectrometry count [6]: 82
B6: N-terminal FLAG tagged B3GNT2 (enzyme, human, UniProt Q9NY97 1-397, looked up)
chain: MSVGRRRIKLLGILMMANVFIYFIMEVSKSSSQEKNGKGEVIIPKEKFWKISTPPEAYWNREQEKLNRQYNPILSMLTNQTGEAGRLSNISHLNYCEPDLRVTSVVTGFNNLPDRFKDFLLYLRCRNYSLLIDQPDKCAKKPFLLLAIKSLTPHFARRQAIRESWGQESNAGNQTVVRVFLLGQTPPEDNHPDLSDMLKFESEKHQDILMWNYRDTFFNLSLKEVLFLRWVSTSCPDTEFVFKGDDDVFVNTHHILNYLNSLSKTKAKDLFIGDVIHNAGPHRDKKLKYYIPEVVYSGLYPPYAGGGGFLYSGHLALRLYHITDQVHLYPIDDVYTGMCLQKLGLVPEKHKGFRTFDIEEKNKNNICSYVDLMLVHSRKPQEMIDIWSQLQSAHLKC
notes: Overexpressed in cells and pulled down from the lysate with mouse anti-FLAG antibody; also called N-FLAG B3GNT2; N-term FLAG; not shown: N-terminal FLAG tag
